These results are taken from patent US20010013317A1, “Medium for coloring live bait worms” (priority 1999, published 2001).

The nature of the data set: Solubility of colorant in water. Conditions: at 25° C.

Structures are written as SMILES.

Turning to `O=S(=O)([O-])c1ccc(N=Nc2c(O)ccc3cc(S(=O)(=O)[O-])ccc23)cc1.[Na+].[Na+]` [FD & C Yellow 6], the Solubility in water was determined as 19 mg/mL.
